Apparent affinities of Ab-91 variants for a coronavirus HR2 peptide

Binding partner: SARS-CoV-2 spike HR2 peptide, sequence PDVDLGDISGINAS.

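The parent was found by panning a naive human phage display library on the peptide. AAYL51 was designed without a model: most single CDR substitutions and a random sample of double and triple ones. AlphaSeq pools MATa yeast showing the antibodies with MATalpha yeast showing the peptide. Binding brings cells together so that they mate, and sequencing counts the barcode pairs among the diploids. A regression on co-assayed BCL2-family reference pairs converts the normalised counts of each replicate to an apparent Kd. The assay was run in three technical replicates.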

The variants keep the light chain, the linker and the frameworks of Ab-91 (scFv order VL, three GGGGS repeats, VH).
VL: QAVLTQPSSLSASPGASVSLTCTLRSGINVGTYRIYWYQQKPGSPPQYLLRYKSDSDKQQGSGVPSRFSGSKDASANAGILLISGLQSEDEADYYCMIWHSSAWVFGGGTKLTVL
VH: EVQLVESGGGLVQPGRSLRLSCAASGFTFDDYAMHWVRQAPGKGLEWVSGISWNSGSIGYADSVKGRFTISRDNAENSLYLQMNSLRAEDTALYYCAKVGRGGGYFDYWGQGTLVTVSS

Substitutions are numbered in sequence along the VH above, starting at 1 (not Kabat).
Every variant below is changed at A33 of the VH (sequential numbering).
Scale: log10 of Kd in nM, estimated from mating counts; low values are strong binders.
Replicates are averaged; those with no signal do not enter the mean.
A pair that was not seen in that replicate is written "n.d."; this usually means weak binding, but a binder can also be missed.

changes	replicates, log10 nM	log10 Kd (nM), mean	control signals
A33Q/S52C/Y60G	n.d. 3.97 n.d.	3.97	2 of 9 (4.00)
A33S/G103Y	n.d. n.d. n.d.	n.d.	3 of 9 (4.06)
A33M/W53A/S55K	n.d. n.d. n.d.	n.d.	0 of 9
D30N/A33Y/Y108P	n.d. n.d. n.d.	n.d.	1 of 9 (3.51)
A33K/S57E/G102M	1.75 1.82 1.64	1.74	3 of 9 (4.54)
A33L/V99W/Y105P	n.d. 3.96 n.d.	3.96	4 of 9 (4.49)
A33T/V99P	n.d. n.d. 3.85	3.85	3 of 9 (4.96)
A33V/S57Q/Y108T	n.d. 4.63 n.d.	4.63	3 of 9 (4.39)
A33Y/W53E/I58F	n.d. n.d. n.d.	n.d.	0 of 9
A33C/S55G/S63I	n.d. n.d. n.d.	n.d.	2 of 9 (3.64)
D30T/A33Y/S52G	n.d. n.d. n.d.	n.d.	0 of 9
A33E/S57V/Y105P	4.60 4.98 5.18	4.92	7 of 9 (4.97)
A33T/S57T/G100E	4.21 5.50 5.72	5.14	5 of 9 (4.78)
F27S/A33E/I51A	n.d. n.d. n.d.	n.d.	0 of 9
A33E/I51F/A61R	n.d. n.d. n.d.	n.d.	3 of 9 (4.51)
T28G/A33E/D62K	4.18 n.d. n.d.	4.18	0 of 9
A33E/G100H/R101G	3.57 5.89 n.d.	4.73	4 of 9 (3.54)
A33G/S52P/I58F	n.d. n.d. n.d.	n.d.	0 of 9
T28I/A33Q	n.d. n.d. n.d.	n.d.	1 of 9 (3.84)
A33S/S57M	3.22 3.27 2.78	3.09	0 of 9
F29Q/A33T/G104V	n.d. n.d. n.d.	n.d.	2 of 9 (3.03)
G26C/A33H/S52Q	5.81 4.36 5.53	5.23	4 of 9 (4.45)
G26T/A33G/S55E	4.84 n.d. n.d.	4.84	2 of 9 (4.50)
A33G/I51C/G100P	n.d. 5.41 n.d.	5.41	2 of 9 (4.77)
A33P/S57D/Y60C	3.10 3.29 3.91	3.43	2 of 9 (4.84)
A33L/G56D/A61T	n.d. n.d. n.d.	n.d.	3 of 9 (5.11)
D31E/A33F	n.d. n.d. n.d.	n.d.	3 of 9 (4.27)
A33E/K65G	3.61 n.d. n.d.	3.61	1 of 9 (3.02)
A33C/S52D/G104E	4.80 5.99 5.51	5.44	6 of 9 (5.10)
A33K/V64H/V99G	n.d. n.d. n.d.	n.d.	1 of 9 (4.21)
A33R/G56S/Y108L	4.01 4.87 5.02	4.64	2 of 9 (3.84)
A33K/N54T	4.26 n.d. 4.30	4.28	2 of 9 (3.98)
A33S/H35F/V64T	n.d. n.d. n.d.	n.d.	0 of 9
Y32K/A33W/W53S	n.d. 4.43 n.d.	4.43	3 of 9 (3.78)
A33P/H35Y/F106T	3.29 5.73 n.d.	4.51	1 of 9 (3.08)
A33Y/Y105V	n.d. n.d. n.d.	n.d.	0 of 9
A33S/A61S/G104R	5.09 n.d. n.d.	5.09	1 of 9 (3.62)
T28S/A33F/F106C	n.d. n.d. n.d.	n.d.	1 of 9 (5.86)
A33L/H35K/I58R	n.d. n.d. 4.16	4.16	1 of 9 (4.35)
A33T/N54W/D107K	n.d. 5.44 n.d.	5.44	0 of 9
A33K/S63C/G103W	n.d. 5.87 n.d.	5.87	3 of 9 (5.05)
D31H/A33G/M34T	2.26 2.33 2.31	2.30	2 of 9 (4.01)
G26S/A33H/W53N	2.70 n.d. n.d.	2.70	1 of 9 (3.80)
A33M/V64I/R101H	n.d. n.d. n.d.	n.d.	1 of 9 (4.36)
F29S/A33M/S57V	3.95 6.80 4.45	5.07	6 of 9 (4.75)

Top 7 of the variants detected in all replicates, tightest first:

{"changes": "A33K/S57E/G102M", "replicates, log10 nM": "1.75 1.82 1.64", "log10 Kd (nM), mean": "1.74", "control signals": "3 of 9 (4.54)"}
{"changes": "D31H/A33G/M34T", "replicates, log10 nM": "2.26 2.33 2.31", "log10 Kd (nM), mean": "2.30", "control signals": "2 of 9 (4.01)"}
{"changes": "A33S/S57M", "replicates, log10 nM": "3.22 3.27 2.78", "log10 Kd (nM), mean": "3.09", "control signals": "0 of 9"}
{"changes": "A33P/S57D/Y60C", "replicates, log10 nM": "3.10 3.29 3.91", "log10 Kd (nM), mean": "3.43", "control signals": "2 of 9 (4.84)"}
{"changes": "A33R/G56S/Y108L", "replicates, log10 nM": "4.01 4.87 5.02", "log10 Kd (nM), mean": "4.64", "control signals": "2 of 9 (3.84)"}
{"changes": "A33E/S57V/Y105P", "replicates, log10 nM": "4.60 4.98 5.18", "log10 Kd (nM), mean": "4.92", "control signals": "7 of 9 (4.97)"}
{"changes": "F29S/A33M/S57V", "replicates, log10 nM": "3.95 6.80 4.45", "log10 Kd (nM), mean": "5.07", "control signals": "6 of 9 (4.75)"}

Empty control strains, which show no peptide, gave a signal in 21% of pairings with library AAYL51; the median was 4.54 and 95% of these signals were weaker than 3.26. No background was subtracted. For each scFv, signals with the empty controls are counted beside the result, with their mean in brackets.
Parent in this assay: reference entry 1.86, copy in this library 0.88.

Reference: Engelhart et al. 2022, doi:10.1038/s41597-022-01779-4. File: FLAb, binding data.